Read-outs that look alike come from different tables or passages of the source.
Target: ERα-VP16 (VP16-ERα) (Homo sapiens, UniProt P03372)
Type: cell-based
Conditions: […] h, αII peptide recruitment

Chains of the proteins cited; added tags and fusions are not shown.
UniProt P03372, whole entry: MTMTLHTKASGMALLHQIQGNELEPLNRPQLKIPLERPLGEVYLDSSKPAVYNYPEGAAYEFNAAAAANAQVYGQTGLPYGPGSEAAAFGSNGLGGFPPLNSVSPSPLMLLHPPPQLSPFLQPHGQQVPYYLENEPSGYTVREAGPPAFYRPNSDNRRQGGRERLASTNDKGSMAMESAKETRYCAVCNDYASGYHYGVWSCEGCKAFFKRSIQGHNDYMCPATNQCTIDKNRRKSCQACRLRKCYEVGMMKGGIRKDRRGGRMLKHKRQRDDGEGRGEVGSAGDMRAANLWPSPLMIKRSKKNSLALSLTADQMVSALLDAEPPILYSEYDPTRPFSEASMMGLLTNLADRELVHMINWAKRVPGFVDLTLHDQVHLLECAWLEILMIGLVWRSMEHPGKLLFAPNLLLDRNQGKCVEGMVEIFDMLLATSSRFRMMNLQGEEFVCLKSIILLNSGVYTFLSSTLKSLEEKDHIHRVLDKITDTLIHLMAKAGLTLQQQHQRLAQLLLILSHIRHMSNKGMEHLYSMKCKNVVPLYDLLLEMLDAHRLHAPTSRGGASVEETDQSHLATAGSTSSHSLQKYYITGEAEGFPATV

EC50 [µM] | EC50 (commercial library sample) [µM] | Compound
6.2 |  | CC(C)c1csc2nc(Cl)nc(NCc3ccc(O)cc3)c12 [2c, 4-(((2-chloro-5-isopropylthieno[2,3-d]pyrimidin-4-yl)amino)methyl)phenol]
7.79 |  | Oc1cccc(CNc2nc(Cl)nc3scc(-c4ccccc4)c23)c1 [5d, 3-(((2-chloro-5-phenylthieno[2,3-d]pyrimidin-4-yl)amino)methyl)phenol]
 | 0.18 | Cc1nc(NCc2ccc(O)cc2)c2c(CC(C)C)csc2n1 [compound 1, thieno[2,3-d]pyrimidine 1]

Source: paper doi:10.1101/2022.04.15.488344v1 (biorxiv, 2022)
